The experiment concerns the target partially purified human EGF (epidermal growth factor) receptor tyrosine kinase (Homo sapiens, UniProt P00533). The conditions noted are these: read-out: Tyrosine kinase inhibitory activity (IC50, μ); Table-2 continued; partially purified EGF receptor from A431 cells; 4) hydrochloride.

By UniProt entry, the sequences of proteins in these tests, tags left out.
UniProt P00533, whole entry, looked up: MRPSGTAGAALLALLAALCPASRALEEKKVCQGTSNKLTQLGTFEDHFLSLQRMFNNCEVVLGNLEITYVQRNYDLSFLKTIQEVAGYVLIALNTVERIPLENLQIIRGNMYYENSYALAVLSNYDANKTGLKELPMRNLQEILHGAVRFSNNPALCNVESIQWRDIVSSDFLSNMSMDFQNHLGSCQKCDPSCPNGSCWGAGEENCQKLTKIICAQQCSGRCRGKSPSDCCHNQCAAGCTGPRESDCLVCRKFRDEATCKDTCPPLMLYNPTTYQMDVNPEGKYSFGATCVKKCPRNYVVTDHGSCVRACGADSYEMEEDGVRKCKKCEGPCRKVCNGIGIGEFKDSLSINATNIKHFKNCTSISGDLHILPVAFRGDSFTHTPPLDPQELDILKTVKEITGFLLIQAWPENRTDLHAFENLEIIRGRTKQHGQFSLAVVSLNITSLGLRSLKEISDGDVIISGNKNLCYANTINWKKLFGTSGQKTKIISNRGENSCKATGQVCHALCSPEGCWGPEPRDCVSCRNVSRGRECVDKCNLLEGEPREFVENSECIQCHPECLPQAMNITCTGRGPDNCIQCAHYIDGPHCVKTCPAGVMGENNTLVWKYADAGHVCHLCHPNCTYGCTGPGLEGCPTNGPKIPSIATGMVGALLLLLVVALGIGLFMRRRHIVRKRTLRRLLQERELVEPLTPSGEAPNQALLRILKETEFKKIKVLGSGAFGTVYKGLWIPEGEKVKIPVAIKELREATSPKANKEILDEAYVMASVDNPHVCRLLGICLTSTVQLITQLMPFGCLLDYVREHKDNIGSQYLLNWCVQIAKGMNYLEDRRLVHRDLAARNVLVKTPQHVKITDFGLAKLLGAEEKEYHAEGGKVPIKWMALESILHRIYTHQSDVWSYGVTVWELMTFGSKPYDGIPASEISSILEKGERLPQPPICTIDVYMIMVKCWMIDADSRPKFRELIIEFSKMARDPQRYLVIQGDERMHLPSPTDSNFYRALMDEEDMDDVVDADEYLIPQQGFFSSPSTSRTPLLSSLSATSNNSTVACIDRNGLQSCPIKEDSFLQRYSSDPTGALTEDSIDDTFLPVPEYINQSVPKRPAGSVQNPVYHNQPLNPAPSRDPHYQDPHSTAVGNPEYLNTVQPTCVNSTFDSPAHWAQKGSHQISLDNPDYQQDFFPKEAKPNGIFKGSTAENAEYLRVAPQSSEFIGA

By IC50 is commonly meant the concentration needed to halve the response being measured.

With `COc1ccc(C(=O)C#CC(C)(C)NC(=O)OCc2ccc[n+](C)c2)cc1OC` [compound 650], the IC50 came to 430 nM.
